What was measured:
[1] = system: Kit225 T cells with STAT-dependent luciferase reporter stimulated with human recombinant IFNα; test: Kit225 T cell assay, IFNα stimulated STAT-dependent luciferase reporter; assay type: cell-based; details: read-out: IFNa Kit225 Reporter, LE (IC50), 200 U/mL human recombinant IFNα, 5-6 hours
Experimental: (§1) Kit225 T cells with a stably-integrated STAT-dependent luciferase reporter were plated in RPMI (Gibco) containing 10% heat-inactivated FBS (Gibco) and 100 U/mL PenStrep (Gibco). The cells were then stimulated with either 20 ng/mL human recombinant IL-23 or 200 U/mL human recombinant IFNα (PBL InterferonSource) for 5-6 hours. Luciferase expression was measured using the STEADY-GLO® Luciferase Assay System (Promega) according to the manufacturer's instructions. Inhibition data were calculated by comparison to no inhibitor control wells for 0% inhibition and non-stimulated control wells for 100% inhibition.

Amino acid sequences for entries named in this document (tags omitted). Chains listed by the source or under a name are the forms on record and can include a tag or linker. Residues count along the entry.
UniProt P29597, 575-869 with tags or gaps: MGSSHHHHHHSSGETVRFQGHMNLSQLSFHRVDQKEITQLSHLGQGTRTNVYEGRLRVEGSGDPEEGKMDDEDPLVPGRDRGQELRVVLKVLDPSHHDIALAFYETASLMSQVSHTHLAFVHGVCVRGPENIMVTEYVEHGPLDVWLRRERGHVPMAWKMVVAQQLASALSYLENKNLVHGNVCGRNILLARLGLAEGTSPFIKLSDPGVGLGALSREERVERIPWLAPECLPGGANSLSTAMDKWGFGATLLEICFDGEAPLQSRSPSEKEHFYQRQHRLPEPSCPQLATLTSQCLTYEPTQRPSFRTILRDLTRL

[2] = system: Kit225 T cells with STAT-dependent luciferase reporter stimulated with human recombinant IL-23; test: Kit225 T cell assay, IL-23 stimulated STAT-dependent luciferase reporter; assay type: cell-based; details: read-out: IL-23 Kit225 Reporter, LE (IC50), 20 ng/mL human recombinant IL-23, 5-6 hours
Experimental: as §1

[3] = target: recombinantly expressed His-tagged protein corresponding to amino acids 575-869 of human Tyk2 (Homo sapiens, UniProt P29597); test: Probe displacement assay (scintillation proximity, radiolabeled probe); assay type: binding; details: read-out: Probe Displacement Data (EC50); 2.5 nM Tyk2 (575-869), 40 nM [3H] probe, 30 minutes at room temperature

`CNC(=O)c1cnc(NC(=O)c2ccnc(N)c2)cc1Nc1ccc(Cl)cc1OC` showed an IC50 [1] of 6.71 µM, an IC50 [2] of 3.25 µM and an EC50 [3] of 130 nM.

Source: patent US9987266B2, “Alkyl-amide-substituted pyridyl compounds useful as modulators of IL-12, IL-23 and/or IFNα responses” (BRISTOL-MYERS SQUIBB COMPANY, priority 2013, dated 2018)
